This passage reports Kd results from publication PMC3988563 (2014).

Test [1] addresses T1, Ribosome termination complex formed with GAQ-RF1 (E. coli). As to the kind of experiment: no nucleotide (RF3 lowGDP).
Test [2] concerns the target T1, Ribosome termination complex formed …. Nature of the test: GDPNP.

B1: His-tagged RF3 (class 2 release factor) (natural protein)
chain: MTLSPYLQEVAKRRTFAIISHPDAGKTTITEKVLLFGQAIQTAGTVKGRGSNQHAKSDWMEMEKQRGISITTSVMQFPYHDCLVNLLDTPGHEDFSEDTYRTLTAVDCCLMVIDAAKGVEDRTRKLMEVTRLRDTPILTFMNKLDRDIRDPMELLDEVENELKIGCAPITWPIGCGKLFKGVYHLYKDETYLYQSGKGHTIQEVRIVKGLNNPDLDAAVGEDLAQQLRDELELVKGASNEFDKELFLAGEITPVFFGTALGNFGVDHMLDGLVEWAPAPMPRQTDTRTVEASEDKFTGFVFKIQANMDPKHRDRVAFMRVVSGKYEKGMKLRQVRTAKDVVISDALTFMAGDRSHVEEAYPGDILGLHNHGTIQIGDTFTQGEMMKFTGIPNFAPELFRRIRLKDPLKQKQLLKGLVQLSEEGAVQVFRPISNNDLIVGAVGVLQFDVVVARLKSEYNVEAVYESVNVATARWVECADAKKFEEFKRKNESQLALDGGDNLAYIATSMVNLRLAQERYPDVQFHQTREH
B1: the Kd worked out at 8 nM in test [1] and 16 nM in test [2].
